US20240402608A1, “METHOD FOR NON-INVASIVE PRODUCTION OF DEFINED STRUCTURES INSIDE COMPARTMENTS AND COMPARTMENT” (MAX-PLANCK-GESELLSCHAFT ZUR FÖRDERUNG DER WISSENSCHAFTEN …, priority 2021, published 2024)

Conditions: not told

Work on “poly(ethylene glycol) diacrylate 575 [PEGDA]” yielded a membrane permeability of 0.3875 ± 0.133 ×10⁻⁶ cm/s.
